Values quoted from earlier work, collected in paper PMC11794116.

By UniProt entry, the sequences of proteins in these tests, tags left out. Residues count along the entry.
UniProt P08637, 17-208: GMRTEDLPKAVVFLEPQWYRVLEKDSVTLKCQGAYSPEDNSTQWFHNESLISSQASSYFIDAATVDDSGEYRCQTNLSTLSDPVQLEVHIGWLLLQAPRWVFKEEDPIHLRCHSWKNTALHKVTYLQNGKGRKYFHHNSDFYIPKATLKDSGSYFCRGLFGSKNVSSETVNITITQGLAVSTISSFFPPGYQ

Target: CD16a (F176) (Homo sapiens) (UniProt P08637)

- Kd: 99 nM
Substance: margetuximab Fc
